Results taken from patent US6046190A, “Hydroxyethylamino sulphonamides useful as retroviral protease inhibitors” (G.D. Searle & Co., priority 1996, dated 2000).

Biological target: T1, HIV protease (Human immunodeficiency virus type 1 group M subtype B, UniProt P04585)
T1 construct: HIV protease is diluted in the assay buffer to a final enzyme concentration of 12.3 nanomolar, based on a molecular weight of 10,780
Assay type: biochemical
Conditions: pH 6.4
Description: The enzyme method is described below. […] The positive control is MVT-101 (Miller, M. et al, Science, 246, 1149 (1989)]. The assay conditions are as follows:
20 mM sodium phosphate, pH 6.4
The above described substrate is dissolved in DMSO, then diluted 10 fold in assay buffer. Final substrate concentration in the assay is 80 μM.
The final concentration of DMSO is 14% and the final concentration of glycerol is 18%. The test compound is dissolved in DMSO and diluted in DMSO to 10× the test concentration; 10 μl of the enzyme preparation is added, the materials mixed and then the mixture is incubated at ambient temperature for 15 minutes. The enzyme reaction is initiated by the addition of 40μl of substrate. The increase in fluorescence is monitored at 4 time points (0, 8, 16 and 24 minutes) at ambient temperature. Each assay is carried out in duplicate wells.

## COc1ccc(S(=O)(=O)N(CC(C)C)CC(O)C(Cc2ccccc2)NC(=O)c2ccccc2C)cc1 (stereo not shown) [Table 5A Entry 26]
  IC50: 5 nM
